Experiment [1] concerns the target human IgE (Diatec, Oslo, Norway) (human) (UniProt P01854). Description: cell-based or functional assay.
Experiment [2] shares this target. Nature of the experiment: ELISA, competition with coated Fc(epsilon)RI for HuIgE.
Experiment [3] has the same target. Nature of the experiment: Alphascreen, competitor Omalizumab, biotinylated huIgE.

“Fab obtained by papain digestion of commercially obtained omalizumab”: in experiment [1], the block of degranulation at 500 nM was more than 95%. In experiment [2], the % inhibition by 500 nM came out at 99.1% and the IC50 was 1.17 nM. This substance had a % inhibition maximum in experiment [3] of 96.9%.
In experiment [2], “omalizumab (Xolair), obtained from a commercial source (antibody)” registered a % inhibition by 500 nM of 97.7% and an IC50 of 0.257 nM.

(Values after patent publication WO2012175740A1.)
